Paper PMC13334530 (Nature neuroscience, 2026)
“Also recorded” adds a separate entry of the source.

Legend:
[1] = stereotactic injection into mouse hippocampus
[2] = PAMPA-BBB permeability assay; assay type: in vitro ADME; conditions: BBB-1 phospholipid mix, pH 7.4, 50 μM, N=3
primary mouse neurons = experiment: Intracellular metabolite extraction from treated neurons; assay type: in vitro ADME; conditions: DIV14 cortical neurons, extracted intracellular metabolites, 1 pg limit of detection

For Biotin-PEG24-Epoxomicin [iBEp], the “permeability in vivo (membrane fractionation of hippocampal tissues)” value [1] was “do not detect permeability”, the “fold less permeable than Epoxomicin in PAMPA-BBB” value [2] was “at least 2500 fold” and the “permeability into primary mouse neurons by LC/MS-based metabolite profiling” value (primary mouse neurons) was “no iBEp permeability; also recorded: no iBEp peak is identified”.
